Data published in ChEMBL document CHEMBL1136547, “2,3-Diarylbenzopyran derivatives as a novel class of selective cyclooxygenase-2 inhibitors” (Bioorg Med Chem Lett, 2003).

Biological target: T1, Prostaglandin G/H synthase 2 (Mus musculus, UniProt Q05769)
T1 sequence (Q05769 whole entry): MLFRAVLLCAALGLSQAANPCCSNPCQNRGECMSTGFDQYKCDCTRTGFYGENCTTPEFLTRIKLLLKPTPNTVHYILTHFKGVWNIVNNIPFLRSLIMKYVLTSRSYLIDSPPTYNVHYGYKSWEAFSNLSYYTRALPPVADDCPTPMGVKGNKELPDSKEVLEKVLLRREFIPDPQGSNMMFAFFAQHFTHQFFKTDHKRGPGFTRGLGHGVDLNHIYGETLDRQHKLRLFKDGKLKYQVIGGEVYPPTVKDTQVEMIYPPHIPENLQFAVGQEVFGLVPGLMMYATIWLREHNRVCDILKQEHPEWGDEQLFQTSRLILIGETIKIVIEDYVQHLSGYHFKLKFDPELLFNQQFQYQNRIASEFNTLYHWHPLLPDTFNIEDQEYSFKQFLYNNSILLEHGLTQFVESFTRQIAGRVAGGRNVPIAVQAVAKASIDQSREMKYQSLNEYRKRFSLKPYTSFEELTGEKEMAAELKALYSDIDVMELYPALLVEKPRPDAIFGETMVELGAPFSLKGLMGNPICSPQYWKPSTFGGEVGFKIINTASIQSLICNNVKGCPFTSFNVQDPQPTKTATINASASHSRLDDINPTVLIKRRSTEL
Assay: In vitro inhibitory concentration against prostaglandin G/H synthase 2 using freshly harvested mouse peritoneal macrophages

Compound: CS(=O)(=O)c1ccc(-c2oc3ccccc3c(=O)c2-c2cccnc2)cc1
- IC50: 1.32 µM
